System: PMCs
Test: Degranulation of PMCs (β-hexosaminidase release rate)
Type: cell-based, mouse
Settings: wild-type PMCs, 37° C. 10 minutes; DNP-HSA on IgE-sensitized PMCs; C48/80 10 uM; Substance P 100 uM; PAMP-12 10 uM; vancomycin 1 mM; BzATP 10 uM

In the case of “2,4-dinitrophenyl-conjugated human serum albumin [DNP-HSA]”, the “Degranulation of PMCs by the stimulant alone” value is reported as “induced”.

— patent publication US20260000678A1, “PHARMACEUTICAL COMPOSITION FOR PREVENTING, SUPPRESSING, OR TREATING SYMPTOM ASSOCIATED WITH PSEUDO-ALLERGIC REACTION” (Takasaki University of Health and Welfare, priority 2022, published 2026)
